{
  "sequences": {"note": "By UniProt entry, the sequences of proteins in these tests, tags left out. Residues count along the entry.", "UniProt P23385, 19-1199": "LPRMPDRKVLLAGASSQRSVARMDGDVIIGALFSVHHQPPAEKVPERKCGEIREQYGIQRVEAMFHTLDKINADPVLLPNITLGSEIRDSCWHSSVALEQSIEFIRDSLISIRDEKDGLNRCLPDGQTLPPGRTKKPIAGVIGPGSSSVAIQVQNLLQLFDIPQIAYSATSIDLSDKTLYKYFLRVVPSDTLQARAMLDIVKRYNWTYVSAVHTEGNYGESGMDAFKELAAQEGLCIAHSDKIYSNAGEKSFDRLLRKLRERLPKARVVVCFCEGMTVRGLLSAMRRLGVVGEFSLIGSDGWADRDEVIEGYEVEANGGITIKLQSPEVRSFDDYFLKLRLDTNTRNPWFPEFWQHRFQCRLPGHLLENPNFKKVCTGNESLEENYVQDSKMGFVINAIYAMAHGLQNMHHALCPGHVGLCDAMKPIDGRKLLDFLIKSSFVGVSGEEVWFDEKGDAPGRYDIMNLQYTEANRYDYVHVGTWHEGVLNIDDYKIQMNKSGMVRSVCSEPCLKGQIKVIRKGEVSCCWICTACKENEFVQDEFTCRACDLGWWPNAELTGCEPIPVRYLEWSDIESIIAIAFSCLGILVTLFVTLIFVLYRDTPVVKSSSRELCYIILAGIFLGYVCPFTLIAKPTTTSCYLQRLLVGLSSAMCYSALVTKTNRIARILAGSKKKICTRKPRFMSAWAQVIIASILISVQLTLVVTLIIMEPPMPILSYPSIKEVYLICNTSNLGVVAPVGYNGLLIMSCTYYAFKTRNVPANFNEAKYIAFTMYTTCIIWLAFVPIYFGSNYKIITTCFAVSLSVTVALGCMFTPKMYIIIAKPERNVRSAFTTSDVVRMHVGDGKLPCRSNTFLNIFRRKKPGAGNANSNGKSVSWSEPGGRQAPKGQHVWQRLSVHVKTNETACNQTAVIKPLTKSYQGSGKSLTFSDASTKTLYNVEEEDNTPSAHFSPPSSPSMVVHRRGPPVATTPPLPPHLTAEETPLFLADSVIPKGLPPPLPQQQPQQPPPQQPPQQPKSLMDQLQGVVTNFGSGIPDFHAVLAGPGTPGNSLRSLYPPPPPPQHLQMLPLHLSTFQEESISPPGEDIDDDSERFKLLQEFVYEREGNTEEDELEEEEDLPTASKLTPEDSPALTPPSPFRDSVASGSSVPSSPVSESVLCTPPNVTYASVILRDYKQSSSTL"},
  "source": "paper PMC4387075",
  "about": "(Neuropharmacology, 2015)",
  "molecular_target": "mGlu1 receptors (Rattus norvegicus, UniProt P23385)",
  "test": "PI hydrolysis",
  "format": "cell-based",
  "details": "agonists 100 μM; JNJ16259685 300 μM, CPCCOEt 200 μM, MPEP 10 μM",
  "data": [
    {"substance": "7-(Hydroxyimino)cyclopropa[b]chromen-1a-carboxylate ethyl ester [CPCCOEt]", "values": [
      {"measurement": "effect of antagonist on PI hydrolysis stimulated by quisqualate, DHPG and ACPD", "value": "significantly decreased"}
    ]}
  ]
}
